Earlier results as cited in patent publication US20230349903A1, “ASSAYS AND REAGENTS FOR CHARACTERIZATION OF MHCI PEPTIDE BINDING” (priority 2020, published 2023).

Tests used:
HLA-A*02:03 = HLA-A*02:03 (Homo sapiens, UniProt P04439, A173T/D140Y/D185E/D98H/E277Q/G131W/G231S/I119V/I121R/I166T/I218V/L180W/L300P/L318F/N151K/N90K/P208A/P217A/Q86G/Q94H/R138H/R169H/T345S); conditions: IEDB value, purified MHC/competitive/radioactivity, read-out: half maximal inhibitory concentration (IC50); cited from earlier work
A*26:01 = A*26:01 (Homo sapiens, UniProt P04439, A114D/A173T/A270S/D101N/D185E/E277Q/E87N/F33Y/G231S/I121R/I218V/K168Q/L180W/L300P/L318F/P208A/P217A/Q86R/Q94H/R138Q/S129P/T187R/T323A/T345S/V100A/V358M); conditions: IEDB value, purified MHC/direct/fluorescence, read-out: dissociation constant KD (~EC50); cited from earlier work

Sequence | IC50 (HLA-A*02:03) [nM] | Kd (A*26:01) [nM]
NLFDIPLLTV [Peptide A0203-04] | 0.25 | 
YVIRDLAAM [Peptide A2601-01] |  | 1
